GIV Gai3 FP: inhibitors of GIV peptide binding to Galpha-i3, primary screen, biochemical, fluorescence polarization, FITC-GIV GBA peptide, rat Galphai3; 90 min; stronger effect = lower value; scaled: aluminum fluoride 0%, vehicle 100%; percent of control (FP), % (no concentration beside the values); 210,000 tested, 0.42% active; AID 1224905, 2016;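 active = replicate mean at 85% of control or lower, very high polarization wells dropped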;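 note: wells of about 15 µL received 100 nL stock; the first replicate is given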
GIV-Gai FP conf: confirmation of inhibitors of GIV binding to rat Galpha-i3. 580 tested, 38% active. FITC-GIV peptide binding to Galphai3, fluorescence polarization; hits give low values. shares compounds with GIV Gai3 FP. fluorescence polarization, mP at 100 µM;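 active means inhibition score of 15 or more, meaning 100 minus mean polarization as percent of control over three replicates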;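 further: lower mP means peptide displaced from Galphai3 so more inhibition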
GIV-Gai AS conf: GIV-Galpha-i3 inhibition, AlphaScreen confirmation. shares compounds with GIV Gai3 FP. AlphaScreen Galphai3-GIV binding, purified proteins, 90 min; hits give low values. AlphaScreen counts at 100 µM. 580 tested, 39% active. AID 1259351;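 active means inhibition score at or above a set limit, where the score is 100 minus the three-replicate mean percent of control signal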
* = called active by the depositor. This is one part of a sample in which hits are shown more often than they occur.

SMILES | GIV Gai3 FP | others
Cc1cccc(CNC(=O)c2oc3c(c2C)-c2nn(Cc4cccc(Cl)c4)cc2CC3)c1 | 101
Cc1ccc(CNC(=O)c2oc3c(c2C)-c2nn(Cc4ccc(Cl)cc4)cc2CC3)cc1 | 97
Cc1ccccc1CNC(=O)Cn1cc2c(n1)-c1c(oc(C(=O)N3CCCC3)c1C)CC2 | 114
CC(=O)Nc1ccc(NC(=O)c2oc3c(c2C)-c2nn(Cc4ccccc4Cl)cc2CC3)cc1 | 99
CCOCCCNC(=O)Cn1cc2c(n1)-c1c(oc(C(=O)N3CCCC3)c1C)CC2 | 97
CC(=O)N1CCc2cc(NC(=O)Nc3cccc(Cl)c3)ccc21 | 101
COc1ccc(Cl)cc1NS(=O)(=O)c1cc(-c2cc(C(F)(F)F)on2)sc1C | 101
Cc1ccc(Cn2c(=O)n(Cc3ccccc3)c(=O)c3cccnc32)c(C)c1 | 101
COc1ccccc1-n1c(=O)c2c3c(sc2n2c(SCC(=O)c4ccccc4)nnc12)CCC3 | 104
Cc1cc2c(=O)n(Cc3ccco3)c(SCc3nc4ccccc4[nH]3)nc2s1 | 105
N=c1c(C(N)=O)cc2c(=O)n3ccccc3nc2n1C1CCCC1 | 90 | GIV-Gai FP conf=70;GIV-Gai AS conf=36264
N#Cc1cc2c(=O)n3ccccc3nc2n(C2CCCC2)c1=N | 109
CCOC(=O)c1cc2c(=O)n3ccccc3nc2n(C2CCCCC2)c1=N | 107
COc1ccc(N2CCN(CCNC(=O)c3nnc(Cc4ccccc4Cl)o3)CC2)cc1 | 102
COCCNC(=O)Cn1cnc2onc(-c3ccc(F)cc3)c2c1=O | 107
O=c1ccc(-c2ccccc2)nn1CCc1nc(-c2ccncc2)no1 | 107
CCN(CC)c1ccc(-n2nc3cc(C)c(N)cc3n2)cc1 | 119
CCN(CC)c1ccc(NC(C)=O)c(C)c1 | 102
CCN(CC)c1ccc(N)c(C)c1 | 41* | GIV-Gai FP conf=74;GIV-Gai AS conf=1482*
O=C(O)Cn1c2c(c3ccccc31)CSc1ccc(Cl)cc1-2 | 86 | GIV-Gai FP conf=72;GIV-Gai AS conf=18488*
O=C(O)Cn1c2ccccc2c2ccccc21 | 101
Cn1nc(C(=O)NCc2ccc3c(c2)OCO3)c2c1-c1cc(Cl)ccc1SC2 | 105
COC(=O)c1cc(-c2ccc(N)cc2)nc2ccc(C)cc12 | 114
O=C(CN1C(=O)c2ccccc2S1(=O)=O)Nc1ccc(S(=O)(=O)Nc2ccccc2)cc1 | 101
O=c1c2c(-c3ccccc3)csc2ncn1CC1CCCO1 (configuration not stated) | 102
CCOC(=O)C1=C(C)OC(N)=C(C#N)C1c1cc(F)ccc1F (configuration not stated) | 99
CC(=O)n1c2c(c3ccccc31)OC(N)=C(C#N)C2c1cccc(F)c1 (configuration not stated) | 109
CCN(CC)c1ccc2c(c1)OC(N)=C(C#N)C2c1cccc(F)c1 (configuration not stated) | 108 | GIV-Gai FP conf=115;GIV-Gai AS conf=21637
Cc1cc2n(n1)CCC(=O)N2CCCC(=O)NCc1ccccc1Cl | 103
COc1ccc(-c2cc(=Nc3ccc(C)cc3C)c3cc(O)ccc3o2)cc1 | 75* | GIV-Gai FP conf=64;GIV-Gai AS conf=35576
COc1ccc(-c2cc(=O)c3cc(F)ccc3o2)cc1 | 105
CCCN=c1cc(-c2ccccc2)oc2ccc(C)cc12 | 98
Cc1ccc(N2C(=O)/C(=C/c3ccc(-c4ccc(Br)cc4)o3)C=C2c2ccccc2)cc1C | 113
COC(=O)C1=C(C(=O)OC)SC2(S1)C(C(=O)OC)=C(C(=O)OC)SC1=C2c2cc(C)ccc2N(C)C1(C)C | 106
COc1ccc(-c2nn3c(=O)c(NC(=O)c4ccccc4OC)cnc3o2)cc1 | 104
CC1=NN(c2ccccc2)C(=O)C1C (configuration not stated) | 104
COc1ccc(C(C2C(=O)N(c3ccccc3)N=C2C)C2C(=O)N(c3ccccc3)N=C2C)cc1OC (configuration not stated) | 77* | GIV-Gai FP conf=62;GIV-Gai AS conf=15958*
COc1ccccc1C(C1C(=O)N(c2ccccc2)N=C1C)C1C(=O)N(c2ccccc2)N=C1C (configuration not stated) | 114
COc1ccc(-n2nc(N3CCC(C(=O)NCc4cccc(Cl)c4)CC3)ccc2=O)cc1 | 105
CN1CCN(C(=O)C2CCN(c3nnc(N4CCCC4=O)s3)CC2)CC1 | 104
O=C(CSc1nnc2c3sc(N4CCCC4)nc3ncn12)Nc1ccc2c(c1)OCO2 | 30* | GIV-Gai FP conf=83;GIV-Gai AS conf=27926
O=C(CSc1nnc2c3sc(N4CCCC4)nc3ncn12)Nc1ccc(Cl)cc1 | 103
O=C(CSc1nnc2c3sc(N4CCCC4)nc3ncn12)Nc1ccc(F)c(F)c1 | 110
CCCCOc1ccc(OCCCC)c2c1nc(-c1ccccc1N)c(=O)n2C | 106
CC(=O)N1C(=O)NC(=O)C1(C)C | 102
O=S(=O)(c1ccc(Cl)s1)N1CCc2nc[nH]c2C1 | 102
CCOC(=O)C1=C(C)N=c2s/c(=C\c3cc([N+](=O)[O-])ccc3N3CCOCC3)c(=O)n2C1c1ccc(N(C)C)cc1 (configuration not stated) | 113
CCOC(=O)C1=C(C)N=c2s/c(=C\c3cc([N+](=O)[O-])ccc3N3CCOCC3)c(=O)n2C1c1ccc(OC)c(OC)c1 (configuration not stated) | 110
CCOC(=O)C1=C(C)N=c2s/c(=C\c3cc([N+](=O)[O-])ccc3N3CCOCC3)c(=O)n2C1c1ccc(F)cc1 (configuration not stated) | 74* | GIV-Gai FP conf=64;GIV-Gai AS conf=55281
CC1(C)Cc2c(c3ccccc3n2-c2ccccc2)C(C)(C)N1 | 104

7 compounds drawn at random from the list so far, as already listed:
SMILES | GIV Gai3 FP | others
O=S(=O)(c1ccc(Cl)s1)N1CCc2nc[nH]c2C1 | 102
CCN(CC)c1ccc(NC(C)=O)c(C)c1 | 102
COc1ccc(-c2cc(=Nc3ccc(C)cc3C)c3cc(O)ccc3o2)cc1 | 75* | GIV-Gai FP conf=64;GIV-Gai AS conf=35576
Cc1cc2n(n1)CCC(=O)N2CCCC(=O)NCc1ccccc1Cl | 103
COC(=O)C1=C(C(=O)OC)SC2(S1)C(C(=O)OC)=C(C(=O)OC)SC1=C2c2cc(C)ccc2N(C)C1(C)C | 106
CC(=O)Nc1ccc(NC(=O)c2oc3c(c2C)-c2nn(Cc4ccccc4Cl)cc2CC3)cc1 | 99
COc1ccccc1C(C1C(=O)N(c2ccccc2)N=C1C)C1C(=O)N(c2ccccc2)N=C1C (configuration not stated) | 114

Further structures follow:
SMILES | GIV Gai3 FP | others
COc1cc(/C=C2\N=C(c3cc(OC)c(OC)c(OC)c3)OC2=O)cc(Br)c1OC(C)=O | 114
O=c1[nH]c2c(=O)oc3ccccc3c2n(C2CCCCC2)c1=O | 103
CN(CC(=O)Nc1ccc(S(N)(=O)=O)cc1)C(=O)c1ccc2c(c1)nnn2C | 101
N#C/C(=C/c1ccc(-c2ccc(S(N)(=O)=O)cc2)o1)C(=O)Nc1cc(Cl)ccc1Cl | 75* | GIV-Gai FP conf=80;GIV-Gai AS conf=30693
Cc1ccc(NC(=O)/C(C#N)=C\c2ccc(-c3ccc(Cl)cc3)o2)c(C)c1 | 106
CCOC(=O)c1ccccc1NC(=O)/C(C#N)=C/c1ccc(-c2ccc(Cl)cc2)o1 | 76* | GIV-Gai FP conf=31*;GIV-Gai AS conf=11443*
N#C/C(=C\c1ccc(-c2cc(Cl)ccc2Cl)o1)C(=O)Nc1ccccc1C(=O)O | 113
N#C/C(=C\c1ccc(-c2cccc(Cl)c2)o1)C(N)=O | 91
CCOC(=O)c1ccc(-c2ccc(/C=C(\C#N)C(=O)Nc3cccc(C)c3)o2)cc1 | 129
O=C(Cn1c2ccccc2n2c(=O)cc(-c3ccc(Cl)cc3)nc12)Nc1ccc(F)cc1F | 103
CCOC(=O)c1sc(N2C(=O)c3oc4ccccc4c(=O)c3C2c2ccc(O)c(OCC)c2)nc1C (configuration not stated) | 104
CCn1nccc1C1CCCN1S(=O)(=O)c1ccccc1 (configuration not stated) | 100
CCc1nc(OC2CC(C)(C)Oc3ccc(OC)cc32)c2oc3ccccc3c2n1 (configuration not stated) | 103
O=C(O)c1cnc(N2CCC(Cc3ccccc3)CC2)c(NS(=O)(=O)c2ccccc2)c1 | 99
CC(C)c1ccc(S(=O)(=O)Nc2cc(C(=O)O)cnc2N2CCCC2)cc1 | 122

Screens (PubChem BioAssay)
